From ChEMBL document CHEMBL1146126 (Bioorg Med Chem Lett, 2006) come the findings set out here.

Holding throughout (settings): route subcutaneous
Assay [1] relates to Rattus norvegicus. In words: Increase in cortical thickness at 3 mg/kg, sc 28 days post dose in ovariectomized osteopenic rat. The assay is classed as functional.
Assay [2] deals with Rattus norvegicus. Description: Increase in cortical area at 3 mg/kg, sc 28 days post dose in ovariectomized osteopenic rat. It is filed as functional.
Assay [3] has as its system Rattus norvegicus. Description: Increase in total bone density at 3 mg/kg, sc 28 days post dose in ovariectomized osteopenic rat. The assay is classed as functional.
Assay [4] deals with Rattus norvegicus. In words: Increase in total bone content at 1 mg/kg, sc 28 days post dose in ovariectomized osteopenic rat. The assay is classed as functional, Bone element.
For assay [5], the system named is Rattus norvegicus. In words: Increase in total bone content at 3 mg/kg, sc 28 days post dose in ovariectomized osteopenic rat. The assay is classed as functional.
The test system of assay [6] is Rattus norvegicus. Description: Increase in cortical content at 1 mg/kg, sc 28 days post dose in ovariectomized osteopenic rat. It is filed as functional.
The subject of assay [7] is Rattus norvegicus. In words: Increase in cortical thickness at 1 mg/kg, sc 28 days post dose in ovariectomized osteopenic rat. The assay is classed as functional.
Assay [8] has as its system Rattus norvegicus. Description: Increase in cortical area at 1 mg/kg, sc 28 days post dose in ovariectomized osteopenic rat. The assay is classed as functional.
In assay [9] the test system is Rattus norvegicus. Description: Increase in cortical content at 3 mg/kg, sc 28 days post dose in ovariectomized osteopenic rat. It is filed as functional.

The structures appear in SMILES notation.

Consider `O=C(O)c1ccc(CCCN2C(=O)CC[C@@H]2CC[C@@H](O)Cc2cccc(C(F)(F)F)c2)s1`, for which the Activity is on record as 62.57% in the assay with Rattus norvegicus [1]; 41.77% with Rattus norvegicus [2]; 26.36% in the assay on Rattus norvegicus [3]; 20.59% in the assay with Rattus norvegicus [4]; 23.72% in the assay on Rattus norvegicus [5]; 35.76% in the assay on Rattus norvegicus [6]. For the same compound, the results for the Activity with Rattus norvegicus [7], in the assay with Rattus norvegicus [8] and in the assay on Rattus norvegicus [9] were 52.69%, 34.31% and 43.27%, respectively.
